What was measured:
[1] = species on record: Mus musculus; conditions: CD-1, 5 mg/kg
[2] = species on record: Mus musculus; conditions: CD-1, 5 mg/kg; remark: listed apart in the source
[3] = species on record: Mus musculus; conditions: CD-1, 0.1 mg/kg
[4] = species on record: Mus musculus; conditions: CD-1, 0.1 mg/kg; remark: listed apart in the source
[5] = species on record: Mus musculus; conditions: CD-1
[6] = species on record: Mus musculus; conditions: CD-1, 0.1 mg/kg; remark: listed apart in the source

Compound | deltaT [1] | deltaT [2] | deltaT [3] | deltaT [4] | deltaT [5] | deltaT [6]
CCCN(CCC)C1CCc2cccc(O)c2C1 (stereo unspecified) | 0.3 °C | -0.1 °C | – | – | – | –
COc1ccccc1N1CCN(CCN(C(=O)C2CCCCC2)c2ccccn2)CC1 | – | – | 0.1 °C | 0.1 °C | -0.1 °C | -0.2 °C

From ChEMBL document CHEMBL4400523, “Synthesis of novel pyrido[1,2-c]pyrimidine derivatives with rigidized tryptamine moiety as potential SSRI and 5-HT1A receptor ligands” (Eur J Med Chem, 2019)
